System: Cdk5/p25 transfected HEK293 cells
Assay: NMHC-B (pSerCdk substrate) phosphorylation by Western blot in Cdk5/p25 transfected HEK293 cells
Type: cell-based, human
Conditions: Cdk5/p25 transfected HEK293 cells treated with 1 μM

## CC[C@H](CO)Nc1nc(NCc2ccccc2)c2ncn(C(C)C)c2n1 [Roscovitine]
  200 kDa pSerCdk substrate band intensity: decreased in intensity

Reference: paper PMC2703631, “Identification of non-muscle myosin heavy chain as a substrate for Cdk5 and tool for drug screening” (Journal of Biomedical Science, 2009)
